Test results reported in ChEMBL document CHEMBL5120880, “Peptidomimetics: An Overview of Recent Medicinal Chemistry Efforts toward the Discovery of Novel Small Molecule Inhibitors” (J Med Chem, 2022).

Columns and labels:
Format in all cases: functional
[1] = tested on: Staphylococcus epidermidis; assay: Antimicrobial activity against Staphylococcus epidermidis KCTC 1917 assessed as minimal inhibitory concentration incubated for 18 hrs
Staphylococcus aureus = assay: Antimicrobial activity against Staphylococcus aureus KCTC 1621 assessed as minimal inhibitory concentration incubated for 18 hrs
Escherichia coli = assay: Antimicrobial activity against Escherichia coli KCTC 1682 assessed as minimal inhibitory concentration incubated for 18 hrs
Pseudomonas aeruginosa = assay: Antimicrobial activity against Pseudomonas aeruginosa KCTC 1637 assessed as minimal inhibitory concentration incubated for 18 hrs

Measured: MIC

CC[C@H](C)[C@H](NC(=O)CN)C(=O)NCC(=O)N[C@@H](C)C(=O)N[C@H](C(=O)N[C@@H](CC(C)C)C(=O)N[C@@H](CCCCN)C(=O)N[C@H](C(=O)N[C@@H](CC(C)C)C(=O)N[C@H](C(=O)N[C@H](C(=O)NCC(=O)N[C@@H](CC(C)C)C(=O)N1CCC[C@H]1C(=O)N[C@@H](C)C(=O)N[C@@H](CC(C)C)C(=O)N[C@H](C(=O)N[C@@H](CO)C(=O)N[C@@H](Cc1c[nH]c2ccccc12)C(=O)N[C@H](C(=O)N[C@@H](CCCCN)C(=O)N[C@@H](CCCNC(=N)N)C(=O)N[C@@H](CCCCN)C(=O)N[C@@H](CCCNC(=N)N)C(=O)N[C@@H](CCC(N)=O)C(=O)N[C@@H](CCC(N)=O)C(N)=O)[C@@H](C)CC)[C@@H](C)CC)[C@@H](C)O)[C@@H](C)O)C(C)C)C(C)C [MELITTIN]
16 µg/mL: all assays above
